Assay results: patent publication US7842488B2, “Polynucleotides encoding a human 3-phosphoinositide- dependent protein kinase” (Medical Research Council, priority 1997, dated 2010)

Experiments:
PDK1 [1] = assay: PDK1 assay: activation of GST-PKBα by purified PDK1 with phospholipid vesicles; format: biochemical, rabbit
Experimental: Phospholipid vesicles comprising 1 mM PtdCho, 1 mM PtdSer and 0.1 mM PtdIns lipids were prepared, dried to a film under vacuum and resuspended with vortexing into 10 mM Hepes, pH 7.3. The cloudy solution of multilamellar and large unilamellar vesicles was bath-sonicated for 20 min, after which a clearer suspension of smaller unilamellar vesicles was obtained. […].
Assay of PDK1. The assay was carried out in two stages; in the first, GST-PKBα was incubated with PDK1 in the presence of MgATP and phospholipid vesicles to permit activation of GST-PKBα.
. After 10 min at 30° C., the reactions were terminated by spotting the reaction mixture on to p81 phosphocellulose paper. The papers were washed in phosphoric acid and analysed as described previously. A control reaction in which GST-PKBα was omitted was taken as the blank and was always less than 5% of the activity measured in the presence of GST-PKBα. The basal GST-PKBα activity is the activity measured in the absence of PDK1. […]

PDK1 [2] = assay: Phosphorylation of GST-PKBα by PDK1 with [γ32P]ATP; format: biochemical, rabbit; conditions: PtdCho and PtdSer at 100 μM or in 10-fold excess; 30 min; read-out: concentration required for half maximal phosphorylation of GST-PKBα by PDK1
Experimental: Phospholipid vesicles comprising 1 mM PtdCho, 1 mM PtdSer and 0.1 mM PtdIns lipids were prepared, dried to a film under vacuum and resuspended with vortexing into 10 mM Hepes, pH 7.3. The cloudy solution of multilamellar and large unilamellar vesicles was bath-sonicated for 20 min, after which a clearer suspension of smaller unilamellar vesicles was obtained. Solutions were stored at 4° C. at concentrations 10-fold higher than those required in the assay and used within 2-4 days.
Phosphorylation of GST-PKB ? by PDK1. The incubations were identical to the Stage 1 described above except that [γ^32P] ATP (200-400 cpm/pmol) was used instead of unlabelled ATP. The reactions were terminated by making the solution 1% (by mass) in SDS. The samples were run on a 7.5% SDS-polyacrylamide gel and, after staining with Coomassie blue, the gels were autoradiographed. The Coomassie blue-staining bands corresponding to GST-PKBα were excised and the ^32P-radioactivity associated with each band was quantified.

GST-PDK1 = target: T1, GST-PDK1 (Homo sapiens, UniProt O15530); assay: GST-PDK1 assay: activation and phosphorylation of GST-PKBα; format: biochemical; conditions: versus absence of PtdIns(3,4,5)P3 or PtdIns(3,4)P2
T1 construct: Residues 52-556 of PDK1 were expressed in human embryonic kidney 293 cells; made in house; host or cells: human embryonic kidney 293 cells (pEBG2T)
T1 sequence (O15530 52-556): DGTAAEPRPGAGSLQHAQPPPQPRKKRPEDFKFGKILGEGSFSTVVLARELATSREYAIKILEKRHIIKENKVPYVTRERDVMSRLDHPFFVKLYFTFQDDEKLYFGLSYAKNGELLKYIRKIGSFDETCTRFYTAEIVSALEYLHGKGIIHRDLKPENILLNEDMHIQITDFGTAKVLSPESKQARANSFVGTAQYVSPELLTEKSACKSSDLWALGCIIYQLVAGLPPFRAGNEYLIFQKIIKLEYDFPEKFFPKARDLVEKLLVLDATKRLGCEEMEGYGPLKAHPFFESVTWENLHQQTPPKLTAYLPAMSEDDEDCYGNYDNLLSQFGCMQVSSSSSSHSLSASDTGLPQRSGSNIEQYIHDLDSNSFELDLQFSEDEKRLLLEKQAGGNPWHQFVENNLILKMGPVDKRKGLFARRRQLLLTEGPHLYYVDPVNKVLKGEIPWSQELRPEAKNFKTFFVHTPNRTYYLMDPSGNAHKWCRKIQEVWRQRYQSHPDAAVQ
Experimental: FIG. 12. […] In panels A and C, the assays were terminated by making the incubations 1% (by vol) in TRITON X-100™ (see Ref 21), and the increase in specific activity of GST-PKBα was determined. In panels B and D, the reactions were terminated by making the solutions 1% in SDS, the samples were subjected to SDS/polyacrylamide gel electrophoresis, and the phosphorylation was assessed by autoradiography of the Coomassie blue-stained band corresponding to GST-PKBα.
One unit of PDK1 activity was defined as that amount required to increase the basal activity of GST-PKBα by 1 unit of activity in one min.

Substance: Phosphatidylinositol 3,4,5-tris phosphate [PtdIns(3,4,5)P3]
- fold less effective in activating PDK1 in the absence of PtdCho/PtdSer vesicles (PDK1 [1]; 60 min assay, FIG. 3B): at least 15 fold
- concentration with optimal effect on activation or phosphorylation of GST-PKBα by PDK1 (PDK1 [1]; PtdCho and PtdSer at 100 μM or in 10-fold excess): 10 µM
- EC50 (PDK1 [1]; PtdCho and PtdSer at 100 μM or in 10-fold excess, 30 min, read-out: concentration required for half maximal activation of GST-PKBα by PDK1): 1 to 2 µM
- EC50 (PDK1 [2]): 1 to 2 µM
- fold enhancement of PDK1 activity in the presence of the inositol phospholipid (GST-PDK1): about 1000 fold
